Earlier results, collected in patent publication US20140162261A1, “DETECTION KIT FOR IDENTIFYING GENOTYPE IN DEPRESSION PATIENTS AND METHOD OF USING THE SAME” (priority 2012, published 2014).

Key:
[1] = tested on: 5-HT2 receptors

In the case of `Cc1nc2n(c(=O)c1CCN1CCC(c3noc4cc(F)ccc34)CC1)CCCC2` [Risperidone], the “time to reach peak plasma concentration” value (after oral administration) is given as 1 to 2 h, the “digestion (absorption) after oral administration” value (oral administration) is given as “completely digested” and the “affinity with 5-HT2 receptors” value [1] is given as “high affinity”.
